The entries are a selection whose mix differs from that of the whole data set. Active and inactive are the calls of the source.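 Rule for the calls: active = Z-score of -3 or lower, scaled per plate to the spread of control and sample wells; inactive = z-score above -3.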
Molecular target: Protein-tyrosine kinase 2-beta (Homo sapiens) (UniProt Q14289)
Experiment: Pyk2 FERM oligomerization blockers – Q293 cells, FERM NanoBiT luminescence, HTS, primary screen (AID 1347419);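 note: the deposit names both 25 µM and 10 µM; negative z-score means lost luminescence so less FERM oligomerization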
Parameters: dose or concentration left out as unconfirmed
Conditions: hits give low values

The chains behind the UniProt entries cited, without tags or fusion partners.
UniProt Q14289, whole entry, looked up: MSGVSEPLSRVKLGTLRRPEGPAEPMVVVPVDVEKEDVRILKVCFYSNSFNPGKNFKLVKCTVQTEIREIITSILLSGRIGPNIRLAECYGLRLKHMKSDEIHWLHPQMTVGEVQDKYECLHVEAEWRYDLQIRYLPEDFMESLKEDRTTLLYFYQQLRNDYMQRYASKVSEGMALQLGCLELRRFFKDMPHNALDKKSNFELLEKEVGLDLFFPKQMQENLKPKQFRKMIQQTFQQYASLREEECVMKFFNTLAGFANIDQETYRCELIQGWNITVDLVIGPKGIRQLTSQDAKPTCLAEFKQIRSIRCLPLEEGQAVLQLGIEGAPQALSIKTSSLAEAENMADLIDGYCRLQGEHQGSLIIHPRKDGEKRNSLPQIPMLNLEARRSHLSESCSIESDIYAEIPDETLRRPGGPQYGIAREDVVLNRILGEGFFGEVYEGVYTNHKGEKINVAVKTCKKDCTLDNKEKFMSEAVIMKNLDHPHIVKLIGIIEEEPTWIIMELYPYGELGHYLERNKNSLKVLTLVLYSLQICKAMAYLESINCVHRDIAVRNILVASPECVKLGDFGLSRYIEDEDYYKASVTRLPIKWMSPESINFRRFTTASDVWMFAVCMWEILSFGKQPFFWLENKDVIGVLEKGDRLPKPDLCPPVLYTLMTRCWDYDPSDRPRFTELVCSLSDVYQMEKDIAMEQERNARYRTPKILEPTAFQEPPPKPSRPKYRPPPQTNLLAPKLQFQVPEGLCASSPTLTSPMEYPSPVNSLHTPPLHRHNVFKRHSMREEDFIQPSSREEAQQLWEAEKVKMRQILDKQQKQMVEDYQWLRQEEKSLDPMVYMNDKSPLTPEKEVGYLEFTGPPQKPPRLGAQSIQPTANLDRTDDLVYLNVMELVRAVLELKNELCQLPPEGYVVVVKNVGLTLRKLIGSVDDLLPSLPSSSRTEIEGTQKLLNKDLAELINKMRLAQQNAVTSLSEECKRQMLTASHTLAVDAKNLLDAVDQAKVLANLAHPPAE

Structure (SMILES)	z-score
CCC(CO)(C(=O)OC1CN2CCC1CC2)c1ccccc1 (stereo unspecified)	inactive: 1.37
CCOc1ncccc1C(=O)NCC1(N2CCOCC2)CCCCC1	inactive: 1
Fc1ccccc1NC1CCN(Cc2ccccc2)CC1	inactive: 0.84
c1ccc(CN2CCC(Nc3ccccc3)CC2)cc1	inactive: 1.19
N/C(=N\O)c1c(N)no[n+]1[O-]	inactive: 0.58
CN1CCC(Nc2cccc(F)c2)CC1	inactive: 1.59
O=C(NCC1(N2CCOCC2)CCCCC1)c1cc(=O)[nH]c2ccccc12	inactive: 0.68
N#CC1(Nc2ccccc2)CCN(CCc2ccccc2)CC1	inactive: -0.13
COc1ccc(NC2CCN(CCc3ccccc3)CC2)c(OC)c1	inactive: -0.33
O=C(NCC1(N2CCOCC2)CCCCC1)c1cc2ccccc2o1	inactive: -0.86
O=C(OC1CN2CCC1CC2)C1c2ccccc2Oc2ccccc21 (stereo unspecified)	inactive: -0.32

Reference: PubChem BioAssay AID1347419 (Sanford-Burnham Center for Chemical Genomics, 2020)
